Test results: patent US20240261333A1, “NOVEL TARGETS FOR ENHANCING ANTI-TUMOR IMMUNITY” (THE BROAD INSTITUTE, INC., priority 2021, published 2024)

Assays:
Assay in all cases: co-IP, IgG control, lysate of N-FLAG B3GNT2 cells, mass spectrometry
RBMX = RBMX (UniProt P38159)
PSMA4 = PSMA4 (UniProt P25789)
CNP = CNP (UniProt P09543)
SMN1 = SMN1 (UniProt Q16637)
OS9 = OS9 (UniProt Q13438)
RPL29 = RPL29 (UniProt P47914)
LRP2 = LRP2 (UniProt P98164)
SLC25A1 = SLC25A1 (UniProt P53007)
CSPG4 = CSPG4 (UniProt Q6UVK1)
LOXL4 = LOXL4 (UniProt Q96JB6)
PSMA1 = PSMA1 (UniProt P25786)
CEP170 = CEP170 (UniProt Q5SW79)
TRIM28 = TRIM28 (UniProt Q13263)
DPM1 = DPM1 (UniProt O60762)
SERPINE2 = SERPINE2 (UniProt P07093)
ALDOA = ALDOA (UniProt P04075)
ABCF1 = ABCF1 (UniProt Q8NE71)
PGK1 = PGK1 (UniProt P00558)
LRPPRC = LRPPRC (UniProt P42704)
LAMB1 = LAMB1 (UniProt P07942)
ARPC2 = ARPC2 (UniProt O15144)
RPL18A = RPL18A (UniProt Q02543)
NCL = NCL (UniProt P19338)
HLA-A = HLA-A (UniProt P04439)
SRSF7 = SRSF7 (UniProt Q16629)
HSPA5 = HSPA5 (UniProt P11021)
RNASE1 = RNASE1 (UniProt P07998)
TNC = TNC (UniProt P24821)
PRR4 = PRR4 (UniProt Q16378)
MYO1D = MYO1D (UniProt O94832)
SLC25A3 = SLC25A3 (UniProt Q00325)
HSPH1 = HSPH1 (UniProt Q92598)
CALM2 = CALM2 (UniProt P0DP24)
PPIB = PPIB (UniProt P23284)
SLC25A10 = SLC25A10 (UniProt Q9UBX3)
SEC16A = SEC16A (UniProt O15027)
RAB1B = RAB1B (UniProt Q9H0U4)
MAP1B = MAP1B (UniProt P46821)
GNAS = GNAS (UniProt Q5JWF2)

IgG control (Millipore Sigma 12-371) (antibody)
co-IP/MS count (RBMX): 0
co-IP/MS count (PSMA4): 0
co-IP/MS count (CNP): 0
co-IP/MS count (SMN1): 0
co-IP/MS count (OS9): 0
co-IP/MS count (RPL29): 0
co-IP/MS count (LRP2): 0
co-IP/MS count (SLC25A1): 0
co-IP/MS count (CSPG4): 0
co-IP/MS count (LOXL4): 0
co-IP/MS count (PSMA1): 0
co-IP/MS count (CEP170): 0
co-IP/MS count (TRIM28): 0
co-IP/MS count (DPM1): 0
co-IP/MS count (SERPINE2): 0
co-IP/MS count (ALDOA): 0
co-IP/MS count (ABCF1): 0
co-IP/MS count (PGK1): 0
co-IP/MS count (LRPPRC): 0
co-IP/MS count (LAMB1): 0
co-IP/MS count (ARPC2): 0
co-IP/MS count (RPL18A): 0
co-IP/MS count (NCL): 0
co-IP/MS count (HLA-A): 0
co-IP/MS count (SRSF7): 0
co-IP/MS count (HSPA5): 9
co-IP/MS count (RNASE1): 0
co-IP/MS count (TNC): 0
co-IP/MS count (PRR4): 0
co-IP/MS count (MYO1D): 0
co-IP/MS count (SLC25A3): 0
co-IP/MS count (HSPH1): 0
co-IP/MS count (CALM2): 0
co-IP/MS count (PPIB): 0
co-IP/MS count (SLC25A10): 0
co-IP/MS count (SEC16A): 0
co-IP/MS count (RAB1B): 0
co-IP/MS count (MAP1B): 0
co-IP/MS count (GNAS): 0
